Laboratory results as given in article PMC6418785, “Presenting Precision Glycomacromolecules on Gold Nanoparticles for Increased Lectin Binding” (Polymers, 2017).

Target: T1, Concanavalin A (Con A) (Canavalia ensiformis, UniProt P02866)
T1 construct: purchased LKT Laboratories (Biomol, Hamburg, Germany)
Assay: SPR inhibition competition assay, Con A binding to mannosylated sensor chip
Details: 100 nM Con A, LBB, SA sensor chip used for 1a and 3a (footnote 1)
Method: As sensor chip a SA (streptavidin) chip from GE Healthcare Life Sciences was used. The positive (α-D-Mannose-PAA-biotin, flow cell 2) and negative (α-D-Galactose-PAA-biotin, flow cell 1) control for Con A binding were immobilized on the sensor chip surface using the standard biotin streptavidin capture method as adapted from previously established protocols. Therefore, a 4.2 µg/mL solution of both polymers was prepared in HBS-P+ buffer (pH 7.4, GE Healthcare, Uppsala, Sweden). The same buffer was used as running buffer in a flow rate of 10 µL/min. For immobilization, the immobilization wizard was used with a specified contact time of 420 s. Sodium chloride, sodium hydroxide and isopropanol solutions were prepared as specified by the manufacturer. […]
SPR inhibition competition studies were performed using the wizard template kinetics/affinity with contact times of 105 s and dissociation times of 180 s. […] Then it was filtrated (Acrodisc® 32 mm syringe filter with a 0.1 µm Supor® membrane from Pall Corporation, Newquay, UK) and the concentration was determined spectrophotometrically. […]
For the experiment Con A and sample solutions were mixed in a 1:1 ratio to give half of the prepared concentrations. […] The relative response values of the Con A solutions incubated with the respective sample in serial dilutions were referred to Con A and calculated for relative binding in %. […]

Q: For “Man(2,4,6,8,10)-11-Gly(1)-EDS(3,5,7,9)-Cys(11)-N-ethylmaleimide [glycomacromolecule 3a]”, which IC50 is on record?
A: 155 ± 78 nM
